AlphaSeq binding of Ab-14 heavy chain variants to a spike HR2 peptide

Values reported by Engelhart et al. 2022, doi:10.1038/s41597-022-01779-4 (FLAb copy).

All variants were tested on one target, the spike HR2 peptide PDVDLGDISGINAS (SARS-CoV-2).

Ab-14 is the parent antibody, in scFv form: VH, then three GGGGS repeats, then VL. The light chain is unchanged in all variants.
VH: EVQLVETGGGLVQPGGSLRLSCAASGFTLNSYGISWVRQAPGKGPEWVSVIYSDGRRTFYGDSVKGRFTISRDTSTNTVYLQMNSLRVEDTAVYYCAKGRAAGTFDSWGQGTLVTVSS
VL: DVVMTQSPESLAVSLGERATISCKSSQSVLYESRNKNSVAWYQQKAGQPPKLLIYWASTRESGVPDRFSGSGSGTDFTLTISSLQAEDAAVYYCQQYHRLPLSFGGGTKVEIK

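The starting antibody came from a phage panning campaign against this peptide. Variants in AAYL49 differ from the parent at up to three CDR positions; double and triple changes were sampled at random. In AlphaSeq, yeast of one mating type display the scFv and yeast of the other type display the target. After mating in shaken culture at 30 °C for 16 h, diploids were selected and their barcode pairs sequenced. Scores were corrected for input abundance and mapped to Kd with protein pairs of known affinity run in the same pool. Each pool was mated in three replicate cultures.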

Positions count from residue 1 of the parent VH; I51H puts H in place of I.
Numbers give log10(Kd / nM), so 0 is 1 nM and 3 is 1 µM. Smaller is tighter.
"ND" marks a missing value. The strain was present, yet no cells mated with the target were sequenced in that replicate, which points to weak or no binding.
For reference, the parent read 0.65 as the reference entry and 4.11 (one replicate of three) as a member of this library.

log10 Kd (nM) by replicate	changes
ND / 3.58 / ND	I51H/R57I/S63D
3.69 / 4.29 / 4.73	Y60D/V64Q/D106L
ND / ND / ND	N30H/G33H/S107F
ND / ND / ND	S31E/G55K/G103C
ND / ND / ND	G26D/G55F/G61W
ND / 4.01 / ND	T28G/T104P/S107F
ND / ND / ND	Y32F/V64T/G99T
4.98 / ND / ND	T28S/I51Q/D62V
ND / ND / ND	T28W/I51G/R56I
ND / ND / ND	R56P/F105R/D106P
ND / ND / ND	I34H/R57F/V64P
4.13 / ND / 3.64	Y32K/D62F/K65L
ND / ND / ND	T28W/V50R/S107V
ND / ND / 5.61	F27C/G33C/G103H
5.18 / 4.98 / 5.07	Y32P/S35T/T104R
ND / 3.16 / ND	S35L/V64S/F105W
ND / 5.13 / ND	I51P/R57I/G61D
0.29 / 0.48 / 0.40	S31E/K65S
ND / ND / ND	V50C/G55M/T58Q
ND / ND / ND	T58G/V64C/D106I
3.69 / 3.19 / 4.03	R56E/V64L/K65Q
ND / ND / 3.87	V50L/G55K/G99W
1.79 / 1.78 / 2.17	N30F/T104V/S107C
ND / ND / ND	G55M/Y60K
ND / ND / ND	G26V/F27I/S35L
ND / ND / ND	G33Q/R57L/G103C
ND / ND / ND	N30Q/I34Q/T104W
ND / ND / 3.08	N30H/S31D/S35E
ND / ND / ND	L29Y/V64R/K65W
ND / 4.06 / ND	I51K/S63W/D106R
ND / ND / ND	S35W/S53K/D106Y
ND / ND / ND	N30P/S35V
ND / ND / ND	L29D/Y52G/A102P
ND / ND / ND	Y32C/Y52K/A102E
ND / ND / ND	S31F/S35E/G103H
ND / ND / 2.86	L29I/D106Q

Excerpt, the final 5 entries:

changes,log10 Kd (nM) by replicate
N30P/S35V,ND / ND / ND
L29D/Y52G/A102P,ND / ND / ND
Y32C/Y52K/A102E,ND / ND / ND
S31F/S35E/G103H,ND / ND / ND
L29I/D106Q,ND / ND / 2.86

Empty control strains, which show no peptide, gave a signal in 15% of pairings with library AAYL49; the median was 4.06 and 95% of these signals were weaker than 2.83. No background was subtracted.